For one molecule, IC50 and EC50 results are on record in patent US8536164B2, “Fused pyridine compounds as casein kinase inhibitors” (Pfizer Inc., priority 2010, dated 2013).

Protein sequences, listed by entry. Tags and fused reporters are not part of them. Lines headed by an entry give the natural chain unless they say otherwise; changes in a name come on top.
UniProt P48730: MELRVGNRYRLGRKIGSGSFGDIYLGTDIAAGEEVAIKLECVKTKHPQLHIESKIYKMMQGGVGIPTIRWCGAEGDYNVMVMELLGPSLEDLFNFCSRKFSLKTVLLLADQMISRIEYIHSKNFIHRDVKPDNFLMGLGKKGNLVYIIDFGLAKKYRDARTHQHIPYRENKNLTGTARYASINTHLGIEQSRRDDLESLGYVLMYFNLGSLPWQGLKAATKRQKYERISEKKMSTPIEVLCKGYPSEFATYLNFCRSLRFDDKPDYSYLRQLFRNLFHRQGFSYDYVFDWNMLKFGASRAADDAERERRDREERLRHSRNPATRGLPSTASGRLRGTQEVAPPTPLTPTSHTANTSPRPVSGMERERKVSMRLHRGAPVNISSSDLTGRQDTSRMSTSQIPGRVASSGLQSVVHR
UniProt P49674: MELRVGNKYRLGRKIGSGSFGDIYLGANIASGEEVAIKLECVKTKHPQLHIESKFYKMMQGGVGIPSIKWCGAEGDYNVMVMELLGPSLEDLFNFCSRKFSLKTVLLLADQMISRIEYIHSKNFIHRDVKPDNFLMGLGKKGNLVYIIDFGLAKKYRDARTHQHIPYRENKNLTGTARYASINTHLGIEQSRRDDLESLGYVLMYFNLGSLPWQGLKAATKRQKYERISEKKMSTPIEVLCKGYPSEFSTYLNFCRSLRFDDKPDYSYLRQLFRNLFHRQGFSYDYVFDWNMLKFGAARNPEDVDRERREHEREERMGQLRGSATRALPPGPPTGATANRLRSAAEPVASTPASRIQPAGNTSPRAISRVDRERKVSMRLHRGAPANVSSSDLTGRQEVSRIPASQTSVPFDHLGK

In one experiment the target is CKIδ wild type (Homo sapiens, UniProt P48730). In words: CK1δ kinase assay (Kinase-Glo). Format: biochemical. The conditions noted are these: 10 μM ATP, 2 nM CKIδ, 85 min at 25° C.; read-out: CK1 δ IC50. The procedure: The CK1δ kinase assay was performed in a 40 μl final volume in buffer containing 50 mM Tris, pH 7.5, 10 mM MgCl2, 1 mM dithiothreitol, 100 μg/mL BSA with 10 μM ATP, 2 nM CKIδ wild type, and 42 μM peptide substrate PLSRTLpSVASLPGL (Flotow et al., 1990) in the presence of 1 μl of CKIδ inhibitor or 4% DMSO. The reaction was incubated for 85 min at 25° C.; detection was carried out as described for the Kinase-Glo Assay (Promega). Luminescent output was measured on the Perkin Elmer Envision plate reader (PerkinElmer, Waltham, Mass.).
On the technique in general: In Kinase-Glo more light means more ATP remaining.

For a further experiment, the target named is CKI ε wild type (Homo sapiens, UniProt P49674). As to the kind of experiment: CK1ε kinase assay (Kinase-Glo). The note with it: 10 μM ATP, 2.5 nM CKI ε, 70 min at 25° C.; read-out: CK1 ε:IC50. Type of experiment: biochemical. Here is the method: The CK1ε kinase assay was performed in a 40-μl final volume in buffer containing 50 mM Tris, pH 7.5, 10 mM MgCl2, 1 mM dithiothreitol, 100 μg/mL BSA with 10 μM ATP, 2.5 nM CKI ε wild type, and 42 μM peptide substrate PLSRTLpSVASLPGL (Flotow et al., 1990) in the presence of 1 μl of CKI ε inhibitor or 4% DMSO. The reaction was incubated for 70 min at 25° C.; detection was carried out as described for the Kinase-Glo Assay (Promega). Luminescent output was measured on the Perkin Elmer Envision plate reader (PerkinElmer, Waltham, Mass.).

Experiment [1] deals with T1, human CK1δ (Cos 7 cells cotransfected with mouse Per3-GFP) (Homo sapiens, UniProt P48730).
T1 construct: His tag of the vector pcDNA4/hisA (only the vector name is printed); expressed in transfected cells; host or cells: Cos 7 cells
In words: CK1 WCA HCS nuclear translocation assay (CK1δ). Type of experiment: cell-based. The conditions noted are these: inhibition of mPer3-GFP translocation to the nucleus, overnight exposure, read-out: CK1 δ WCA EC50. The procedure:
(§1) CK1 WCA HCS Nuclear Translocation Assay.
(§2) Cos 7 cells were maintained at 37° C. in 5% CO2 in Dulbecco's Modified Eagle Medium (Gibco 11995) supplemented with 10% fetal bovine serum. Log-phase cells were dislodged with 5 min treatment of TrypLE Express (Gibco 12605) and viable cell count was determined with Cedex cell counter. Cells were diluted in DMEM medium to a density of 1.5e5 viable cells/mL in ⅔ of the final volume of final transfected cell mix. Cells were cotransfected with two plasmid DNAs, mouse Per3-GFP (green fluorescent protein) in pd2EGFP-N1 vector and human CKI in pcDNA4/hisA vector (for CK1Epsilon at a ratio of 1:5 respectively; for CK1δ at a ratio of 1:11 respectively), using Lipofectamine 2000 reagent (Invitrogen) according to the manufacturer's recommendations. The transfection mix contained approximately 0.83 μg/mL of DNA and 6 μL/mL of Lipofectamine 2000, in a total of ⅓ of the final transfection volume in Opti-MEM I medium (Invitrogen). […]
(§3) Compounds were solubilized in 100% DMSO, diluted with Opti-MEM I to a 4× concentration before addition to plated cells. […] CKIδ dependent nuclear localization of the GFP-tagged mPer3 protein was quantitated using the Cellomics ArrayScan VTI system utilizing the Cytoplasm to Nucleus translocation bioapplication to calculate the Nuclear-Cytoplasmic Intensity difference. […]

Experiment [2] addresses T2, human CK1Epsilon (Cos 7 cells cotransfected with mouse Per3-GFP) (Homo sapiens, UniProt P49674).
T2 construct: His tag of the vector pcDNA4/hisA (only the vector name is printed); expressed in transfected cells; host or cells: Cos 7 cells
As to the kind of experiment: CK1 WCA HCS nuclear translocation assay (CK1ε). Type of experiment: cell-based. The note with it: inhibition of mPer3-GFP translocation to the nucleus, overnight exposure, read-out: CK1 ε WCA EC50. The procedure:
as §1, §2, §3

As to `CN1Cc2nccc(-c3cn(C)nc3-c3ccc(F)cc3)c2C1=O` [Example 2, 4-[3-(4-fluorophenyl)-1-methyl-1H-pyrazol-4-yl]-6-methyl-6,7-dihydro-5H-pyrrolo[3,4-b]pyridin-5-one], the IC50 on CKIδ wild type was determined as 7.9 nM; at CKI ε wild type it was 35.5 nM. Besides, the EC50 in experiment [1] is 52.6 nM; in experiment [2], 313 nM.

The term IC50 denotes the concentration that gives 50% inhibition. Broadly, the EC50 is the concentration at which the effect is half-maximal.
